Source: patent publication US20260070899A1, “N-(2-(4-CYANOTHIAZOLIDIN-3-YL)-2-OXOETHYL)-QUINOLINE-4-CARBOXAMIDES” (AstraZeneca AB, priority 2022, published 2026)
pIC50: −log10 of the molar value.

Molecular target: T1, human Fibroblast activation protein alpha (hFAP) (Homo sapiens, UniProt Q12884)
T1 construct: Proteros, 38-760 (PR-0071); purchased Proteros PR-0071
T1 sequence (Q12884 38-760): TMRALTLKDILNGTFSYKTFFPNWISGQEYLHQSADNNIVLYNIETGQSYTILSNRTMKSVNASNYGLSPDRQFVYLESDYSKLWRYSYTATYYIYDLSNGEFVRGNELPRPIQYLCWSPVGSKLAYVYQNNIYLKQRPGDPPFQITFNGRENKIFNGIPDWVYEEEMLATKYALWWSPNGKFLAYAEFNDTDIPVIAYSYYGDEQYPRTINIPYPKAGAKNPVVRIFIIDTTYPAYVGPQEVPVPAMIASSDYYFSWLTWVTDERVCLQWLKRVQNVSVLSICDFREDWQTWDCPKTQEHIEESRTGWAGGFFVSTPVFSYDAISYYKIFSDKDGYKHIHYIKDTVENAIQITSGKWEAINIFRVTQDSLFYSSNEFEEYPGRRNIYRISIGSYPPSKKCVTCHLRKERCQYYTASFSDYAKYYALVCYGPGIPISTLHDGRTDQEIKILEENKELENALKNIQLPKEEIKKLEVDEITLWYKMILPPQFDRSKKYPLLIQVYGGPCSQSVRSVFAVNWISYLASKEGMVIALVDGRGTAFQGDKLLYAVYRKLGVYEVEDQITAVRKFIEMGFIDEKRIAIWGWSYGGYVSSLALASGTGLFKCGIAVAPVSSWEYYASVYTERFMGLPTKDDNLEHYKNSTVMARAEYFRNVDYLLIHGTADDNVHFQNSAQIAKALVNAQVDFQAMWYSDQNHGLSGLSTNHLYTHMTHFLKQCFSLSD
Experiment: hFAP inhibition assay (tight binders)
Type: biochemical
Conditions: Ala-Pro-AMC 20 μM, n = 1 or geometric mean (n = 2-5)
Protocol: Data were analyzed in Genedata Screener®.

Row | Compound | pIC50
1 | N#C[C@@H]1CSCN1C(=O)CNC(=O)c1ccnc2ccc(C3(C#N)CCOCC3)cc12 [Example 59, (R)-6-(4-Cyanotetrahydro-2H-pyran-4-yl)-N-(2-(4-cyanothiazolidin-3-yl)-2-oxoethyl)quinoline-4-carboxamide] | 10.41
2 | CO[C@H]1CC[C@H](c2ccc3nccc(C(=O)NCC(=O)N4CSC[C@H]4C#N)c3c2)CC1 (single isomer, unassigned) [Example 78, N-(2-((R)-4-Cyanothiazolidin-3-yl)-2-oxoethyl)-6-((1r,4R*)-4-methoxycyclohexyl)quinoline-4-carboxamide] | 10.48
3 | N#C[C@@H]1CSCN1C(=O)CNC(=O)c1ccnc2ccc(OCC3CC3)cc12 [Example 5, (R)—N-(2-(4-Cyanothiazolidin-3-yl)-2-oxoethyl)-6-(cyclopropyl-methoxy)quinoline-4-carboxamide] | 10.38
4 | CC(O)c1ccc2nccc(C(=O)NCC(=O)N3CSC[C@H]3C#N)c2c1 (mixture of isomers) [Example 25, N-(2-((R)-4-Cyanothiazolidin-3-yl)-2-oxoethyl)-6-((RS)-1-hydroxyethyl)quinoline-4-carboxamide] | 9.60
5 | N#C[C@@H]1CSCN1C(=O)CNC(=O)c1ccnc2ccc(C3(F)CCOCC3)cc12 [Example 64, (R)—N-(2-(4-Cyanothiazolidin-3-yl)-2-oxoethyl)-6-(4-fluorotetrahydro-2H-pyran-4-yl)quinoline-4-carboxamide] | 10.31
6 | CC(C)(F)COc1ccc2nccc(C(=O)NCC(=O)N3CSC[C@H]3C#N)c2c1 [Example 3, (R)—N-(2-(4-Cyanothiazolidin-3-yl)-2-oxoethyl)-6-(2-fluoro-2-methylpropoxy)quinoline-4-carboxamide] | 9.82
7 | N#C[C@@H]1CSCN1C(=O)CNC(=O)c1ccnc2ccc(CCC(F)(F)F)cc12 [Example 58, (R)—N-(2-(4-Cyanothiazolidin-3-yl)-2-oxoethyl)-6-(3,3,3-trifluoropropyl)quinoline-4-carboxamide] | 10.07
8 | CCOC1(c2ccc3nccc(C(=O)NCC(=O)N4CSC[C@H]4C#N)c3c2)CC1 [Example 76, (R)—N-(2-(4-Cyanothiazolidin-3-yl)-2-oxoethyl)-6-(1-ethoxycyclopropyl)quinoline-4-carboxamide] | 9.17
9 | COC1(c2ccc3nccc(C(=O)NCC(=O)N4CSC[C@H]4C#N)c3c2)CCOCC1 [Example 66, (R)—N-(2-(4-Cyanothiazolidin-3-yl)-2-oxoethyl)-6-(4-methoxy-tetrahydro-2H-pyran-4-yl)quinoline-4-carboxamide] | 9.85
10 | Cc1cc(C2(c3ccc4nccc(C(=O)NCC(=O)N5CSC[C@H]5C#N)c4c3)CC2)on1 [Example 50, (R)—N-(2-(4-Cyanothiazolidin-3-yl)-2-oxoethyl)-6-(1-(3-methylisoxazol-5-yl)cyclopropyl)quinoline-4-carboxamide] | 10.19
11 | CC(c1ccc2nccc(C(=O)NCC(=O)N3CSC[C@H]3C#N)c2c1)c1ccc(Cl)cn1 (mixture of isomers) [Example 48, 6-((RS)-1-(5-Chloropyridin-2-yl)ethyl)-N-(2-((R)-4-cyanothiazolidin-3-yl)-2-oxoethyl)quinoline-4-carboxamide] | 9.96
12 | N#C[C@@H]1CSCN1C(=O)CNC(=O)c1ccnc2ccc(COC3CC3)cc12 [Example 37, (R)—N-(2-(4-Cyanothiazolidin-3-yl)-2-oxoethyl)-6-(cyclopropoxy-methyl)quinoline-4-carboxamide] | 9.70
13 | Cn1ncc(Cc2ccc3nccc(C(=O)NCC(=O)N4CSC[C@H]4C#N)c3c2)n1 [Example 41, (R)—N-(2-(4-Cyanothiazolidin-3-yl)-2-oxoethyl)-6-((2-methyl-2H-1,2,3-triazol-4-yl)methyl)quinoline-4-carboxamide] | 9.96
14 | Cc1ccc(C2(c3ccc4nccc(C(=O)NCC(=O)N5CSC[C@H]5C#N)c4c3)CC2)cn1 [Example 43, (R)—N-(2-(4-Cyanothiazolidin-3-yl)-2-oxoethyl)-6-(1-(6-methylpyridin-3-yl)cyclopropyl)quinoline-4-carboxamide] | 9.89
15 | N#C[C@@H]1CSCN1C(=O)CNC(=O)c1ccnc2ccc(C3(c4ccnc(C(F)(F)F)c4)CC3)cc12 [Example 13, (R)—N-(2-(4-Cyanothiazolidin-3-yl)-2-oxoethyl)-6-(1-(2-(trifluoromethyl)pyridin-4-yl)cyclopropyl)quinoline-4-carboxamide] | 9.74
16 | CC(c1ccc2nccc(C(=O)NCC(=O)N3CSC[C@H]3C#N)c2c1)c1ncccc1F (mixture of isomers) [Example 12, N-(2-((R)-4-Cyanothiazolidin-3-yl)-2-oxoethyl)-6-((RS)-1-(3-fluoropyridin-2-yl)ethyl)quinoline-4-carboxamide] | 10.05
17 | Cc1cc(C(C)c2ccc3nccc(C(=O)NCC(=O)N4CSC[C@H]4C#N)c3c2)no1 (mixture of isomers) [Example 46, N-(2-((R)-4-Cyanothiazolidin-3-yl)-2-oxoethyl)-6-((RS)-1-(5-methylisoxazol-3-yl)ethyl)quinoline-4-carboxamide] | 9.89
18 | Cc1cc(C(C)c2ccc3nccc(C(=O)NCC(=O)N4CSC[C@H]4C#N)c3c2)on1 (mixture of isomers) [Example 49, N-(2-((R)-4-Cyanothiazolidin-3-yl)-2-oxoethyl)-6-((RS)-1-(3-methylisoxazol-5-yl)ethyl)quinoline-4-carboxamide] | 9.89
19 | N#C[C@@H]1CSCN1C(=O)CNC(=O)c1ccnc2ccc(CN3CCOCC3)cc12 [Example 24, (R)—N-(2-(4-Cyanothiazolidin-3-yl)-2-oxoethyl)-6-(morpholino-methyl)quinoline-4-carboxamide] | 9.72
20 | CC(C)(O)c1ccc2nccc(C(=O)NCC(=O)N3CSC[C@H]3C#N)c2c1 [Example 16, (R)—N-(2-(4-Cyanothiazolidin-3-yl)-2-oxoethyl)-6-(2-hydroxypropan-2-yl)quinoline-4-carboxamide] | 9.59
21 | N#C[C@@H]1CSCN1C(=O)CNC(=O)c1ccnc2ccc(CC3CCOCC3)cc12 [Example 56, (R)—N-(2-(4-Cyanothiazolidin-3-yl)-2-oxoethyl)-6-((tetrahydro-2H-pyran-4-yl)methyl)quinoline-4-carboxamide] | 10.10
22 | N#C[C@@H]1CSCN1C(=O)CNC(=O)c1ccnc2ccc([C@H]3CC[C@H](C#N)CC3)cc12 (single isomer, unassigned) [Example 55, 6-((1r,4R*)-4-Cyanocyclohexyl)-N-(2-((R)-4-cyanothiazolidin-3-yl)-2-oxoethyl)quinoline-4-carboxamide] | 10.46
23 | N#C[C@@H]1CSCN1C(=O)CNC(=O)c1ccnc2ccc(C3(O)CCOCC3)cc12 [Example 15, (R)—N-(2-(4-Cyanothiazolidin-3-yl)-2-oxoethyl)-6-(4-hydroxy-tetrahydro-2H-pyran-4-yl)quinoline-4-carboxamide] | 9.92
24 | CO[C@H]1CC[C@@H](c2ccc3nccc(C(=O)NCC(=O)N4CSC[C@H]4C#N)c3c2)CC1 (single isomer, unassigned) [Example 79, N-(2-((R)-4-Cyanothiazolidin-3-yl)-2-oxoethyl)-6-((1r,4R*)-4-methoxycyclohexyl)quinoline-4-carboxamide] | 10.17
25 | N#C[C@@H]1CSCN1C(=O)CNC(=O)c1ccnc2ccc(C3=CCOCC3)cc12 [Example 22, (R)—N-(2-(4-Cyanothiazolidin-3-yl)-2-oxoethyl)-6-(3,6-dihydro-2H-pyran-4-yl)quinoline-4-carboxamide] | 10.38
26 | N#C[C@@H]1CSCN1C(=O)CNC(=O)c1ccnc2ccc(C3CCCO3)cc12 (mixture of isomers) [Example 34, N-(2-((R)-4-Cyanothiazolidin-3-yl)-2-oxoethyl)-6-((RS)-tetrahydrofuran-2-yl)quinoline-4-carboxamide] | 9.85
27 | N#C[C@@H]1CSCN1C(=O)CNC(=O)c1ccnc2ccc(C3(c4ncccc4F)CC3)cc12 [Example 44, (R)—N-(2-(4-Cyanothiazolidin-3-yl)-2-oxoethyl)-6-(1-(3-fluoropyridin-2-yl)cyclopropyl)quinoline-4-carboxamide] | 9.92
28 | COCCOCc1ccc2nccc(C(=O)NCC(=O)N3CSC[C@H]3C#N)c2c1 [Example 31, (R)—N-(2-(4-Cyanothiazolidin-3-yl)-2-oxoethyl)-6-((2-methoxyethoxy)-methyl)quinoline-4-carboxamide] | 9.28
29 | CO[C@H]1C[C@](F)(c2ccc3nccc(C(=O)NCC(=O)N4CSC[C@H]4C#N)c3c2)C1 (single isomer, unassigned) [Example 62, N-(2-((R)-4-Cyanothiazolidin-3-yl)-2-oxoethyl)-6-((1r,3R*)-1-fluoro-3-methoxycyclobutyl)quinoline-4-carboxamide] | 10.03
30 | Cc1nn(C)nc1Cc1ccc2nccc(C(=O)NCC(=O)N3CSC[C@H]3C#N)c2c1 [Example 19, (R)—N-(2-(4-Cyanothiazolidin-3-yl)-2-oxoethyl)-6-((2,5-dimethyl-2H-1,2,3-triazol-4-yl)methyl)quinoline-4-carboxamide] | 9.96
